Experimental findings from patent publication US20180066031A1, “ENZYMATICALLY-CLEAVABLE PEPTIDE AMPHIPHILES” (The University of Chicago, priority 2016, published 2018) are described below.

A short description of data set [1]: Micelle size by dynamic light scattering and TEM. Format: physicochemical. As to conditions: FRET-compatible PAs. The method, then:
Micelle size was assessed using dynamic light scattering (DLS, Brookhaven Instruments, Holtzville, N.Y., USA). Stock solutions of 0.5 mM micelles were prepared in water as described above and DLS measurements were performed at 90° angle and 637 nm system consisting of a BI-200SM goniometer and a BI-9000AT autocorrelator. Hydrodynamic radii were determined via the Stokes-Einstein equation using the diffusion coefficient determined from the auto correlation function.
Ultrathin carbon type-A 400 mesh copper grids (Ted Pella, Redding, Calif., USA) were loaded with 5 μL of 0.5 mM PA micelles and allowed to dry. Grids were washed with several drops of water and then negatively stained with 1% aqueous phosphotungstic acid for 3 min. The excess solution was then removed and grids were left to dry. Grids were imaged on a FEI Tecnai 12 TEM using an accelerating voltage of 120 kV.

Data set [2] has as its system HeLa cells. The experiment in a line: Extracellular vesicle analysis (Nanosight NTA, red filter). In kind it is cell-based. On the procedure:
HeLa cells were grown in the T25 with 10% FBS. Cells were washed twice with PBS and incubated with (1) 10 μM diC16-GGG-p53(14-29), (2) 10 μM diC16-VC-PABA-p53(14-29), and (3) media alone for 1 hour in Advanced DMEM supplemented with 1% FBS. This media was then removed and cells were washed twice with PBS. New 10% FBS media was then added on the cells. Following incubation for 6 and 24 hours, 1 mL of media was collected from each of the samples and analyzed using a Nanosight NS300 flow cell (Nanosight, UK) following the manufacturer protocol. Nanoscale particles (10-1000 nm) were analyzed using the NTA software for size distribution and total number of particles per frame. Particles were also tracked using red filters to detect red-laden particles. The ratio of detected red particles per mL to total particle per mL for each sample was then calculated.
To measure extracellular vesicles, HeLa cells were incubated for 1 hour followed by washing and replacement with PA-free media. […] Vesicles within the media were analyzed using a Nanosight N300 with fluorescence filters and nanoparticle tracking analysis (NTA) software was used to determine the number of total and red particles per frame over a threshold of a constant intensity (FIG. 8). […] The number of peptides within each vesicle could not be determined using this technique. […]

Regarding “diC16-GGG-p53(14-29): non-cleavable control p53(14-29) peptide amphiphile: diC16 hydrophobic tail, GGG linker, FAM and Tamra fluorophores”, the “DLS second scattering (aggregation)” value in data set [1] is 200 nm. The “Number of red (p53(14-29)-containing) extracellular vesicles relative to cells incubated with diC16-VC-PABA-p53(14-29)” value in data set [2] (10 μM PA for 1 hour, media analysed) is reported as 4.28 ×.

With “diC16-VC-PABA-p53(14-29): cleavable p53(14-29) peptide amphiphile: diC16 hydrophobic tail, VC-PABA catB-cleavable linker, FAM and Tamra fluorophores”, the “DLS second scattering (aggregation)” value in data set [1] was determined as 150 nm. The “Number of red extracellular particles in media compared to diC16-GGG-p53(14-29)” value in data set [2] (media collected at 6 hours following incubation) is recorded as “less”.
